Legend:
JAK1 = JAK1 (Homo sapiens (Human), UniProt P23458); assay: Biochemical JAK kinase assay (LanthaScreen), JAK1; conditions: read-out: JAK1 Ki; converted from pIC50 with Cheng-Prusoff equation
[1] = tested on: IL-13 induced STAT6 phosphorylation in BEAS-2B human lung epithelial cells; assay: Cellular JAKI potency assay (AlphaScreen), BEAS-2B; conditions: read-out: BEAS-2B IC50, BEAS-2B cells
[2] = tested on: IL-13 induced pSTAT6 induction in lung tissue; assay: Murine model of IL-13 induced pSTAT6 induction in lung tissue; conditions: mouse lung, 1 mg/mL 50 μL oral aspiration, IL-13 challenge 4 h after dose, lungs at 5 hours

By UniProt entry, the sequences of proteins in these tests, tags left out.
UniProt P23458, whole entry: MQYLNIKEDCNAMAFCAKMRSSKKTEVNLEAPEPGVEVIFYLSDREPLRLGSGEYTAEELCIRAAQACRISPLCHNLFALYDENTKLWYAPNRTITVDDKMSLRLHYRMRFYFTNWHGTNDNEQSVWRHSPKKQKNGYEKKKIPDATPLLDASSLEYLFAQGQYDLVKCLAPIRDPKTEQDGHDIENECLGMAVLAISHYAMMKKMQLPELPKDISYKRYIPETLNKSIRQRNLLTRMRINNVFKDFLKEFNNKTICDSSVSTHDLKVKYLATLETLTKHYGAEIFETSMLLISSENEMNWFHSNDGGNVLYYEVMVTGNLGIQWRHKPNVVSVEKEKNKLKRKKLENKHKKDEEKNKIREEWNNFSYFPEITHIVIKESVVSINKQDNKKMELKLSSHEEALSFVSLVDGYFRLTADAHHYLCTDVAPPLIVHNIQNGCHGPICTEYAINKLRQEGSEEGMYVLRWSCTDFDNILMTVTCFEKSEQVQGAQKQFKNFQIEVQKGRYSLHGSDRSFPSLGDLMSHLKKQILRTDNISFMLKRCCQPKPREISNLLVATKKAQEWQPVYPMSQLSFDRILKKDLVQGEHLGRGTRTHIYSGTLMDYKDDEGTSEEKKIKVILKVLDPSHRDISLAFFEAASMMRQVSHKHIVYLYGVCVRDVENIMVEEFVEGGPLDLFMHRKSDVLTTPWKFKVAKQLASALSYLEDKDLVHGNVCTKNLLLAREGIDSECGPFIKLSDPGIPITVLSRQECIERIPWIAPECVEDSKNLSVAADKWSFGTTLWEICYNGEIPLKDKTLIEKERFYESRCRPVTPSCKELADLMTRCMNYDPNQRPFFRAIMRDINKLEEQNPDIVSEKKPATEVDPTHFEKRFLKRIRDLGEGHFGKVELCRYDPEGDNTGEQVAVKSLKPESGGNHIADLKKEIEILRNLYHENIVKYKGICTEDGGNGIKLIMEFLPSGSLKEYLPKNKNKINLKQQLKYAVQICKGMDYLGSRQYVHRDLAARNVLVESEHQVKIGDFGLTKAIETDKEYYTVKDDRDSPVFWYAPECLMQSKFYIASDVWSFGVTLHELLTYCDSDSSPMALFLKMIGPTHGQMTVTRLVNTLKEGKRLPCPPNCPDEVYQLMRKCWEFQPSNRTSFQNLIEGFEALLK

| SMILES | Ki (JAK1) [nM] | IC50 [1] [nM] | pSTAT6 inhibition Assay 4 [2] |
| --- | --- | --- | --- |
| CCCN1Cc2[nH]c(-c3n[nH]c4cc(-c5cc(F)c(O)cc5CC)ccc34)nc2C[C@@H]1C(=O)N1CC(N(C)C)C1 | 0.1 | 4 | B (B represents between 40% and 60% inhibition) |
| CCCN1Cc2[nH]c(-c3n[nH]c4cc(-c5cc(F)c(O)cc5CC)ccc34)nc2CC1C(=O)N1CC(N(C)C)C1 (centres unmarked) | – | 5 | B (B represents between 40% and 60% inhibition) |

From patent US10196393B2, “JAK inhibitors containing a 4-membered heterocyclic amide” (THERAVANCE BIOPHARMA R&D IP, LLC, priority 2017, dated 2019)
